Columns and labels:
Osborne-Mendel rats = assay: Rat caries study; assay type: in vivo; conditions: 1000 ppm F-, 21 days
[1] = Dissolution of hydroxyapatite discs following fluoride treatment (phosphate release); conditions: 1000 ppm F- solution, vs disc treated with buffer alone, means of triplicate, 30 min

sodium monofluorophosphate
Caries/ Rat (Osborne-Mendel rats; topical to molar teeth, cariogenic diet, only severe lesions (B & C) scored, water control 5.25): 3.69 | % Reduction (Osborne-Mendel rats; reduction in caries based on the water control, topical): 29.7% | % Reduction in Dissolution ([1]; pH 4.0): 26% | % Reduction in Dissolution ([1]; pH 5.0): 23% | % Reduction in Dissolution ([1]; pH 6.0): 22% | % Reduction in Dissolution ([1]; pH 7.0): 20%

From patent EP0121012A1, “Oral compositions” (UNILEVER PLC, priority 1983, dated 1984)
